In US20240308992A1 (Biopolar Youtang(Guangdong) Pharmaceutical Co., Ltd., priority 2021, published 2024):
Only a part of the results on these compounds is given; other tests are left out.

Protein sequences, listed by entry. Tags and fused reporters are not part of them.
UniProt O94768, whole entry: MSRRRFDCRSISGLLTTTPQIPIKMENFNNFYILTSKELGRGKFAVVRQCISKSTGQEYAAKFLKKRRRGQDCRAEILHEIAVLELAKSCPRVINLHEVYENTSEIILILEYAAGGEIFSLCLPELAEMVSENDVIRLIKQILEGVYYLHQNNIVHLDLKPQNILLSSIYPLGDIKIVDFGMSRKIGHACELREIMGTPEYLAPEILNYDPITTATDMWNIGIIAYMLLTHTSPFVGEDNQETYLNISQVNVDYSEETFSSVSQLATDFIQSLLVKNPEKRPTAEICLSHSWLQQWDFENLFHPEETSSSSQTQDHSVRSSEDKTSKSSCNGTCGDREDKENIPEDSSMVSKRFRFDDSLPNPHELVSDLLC

Molecular target: Drak2 (Homo sapiens, UniProt O94768)
Test: Drak2 activity test, ADP-Glo kinase assay (Promega)
Format: biochemical
Settings: read-out: IC50_Drak2, inhibition of Drak2 kinase activity, 2 h room temperature, activity range classes

## CCCCC(=O)Nc1csc(-c2cncc(-c3ccc(C(=O)N(c4cnn(C)c4)C4CCN(C)CC4)c(OC)c3)n2)c1
  IC50: 11 to 100 nM
